Columns and labels:
Format in all cases: cell-based, human
[1] = tested on: MCP-1 secretion by endothelial cells (HAEC and HMVEC); assay: AGE-induced inflammatory response determined by MCP-1 ELISA; conditions: 100 ng/ml TNFα or 300 μg/ml G-HSA, 24 hrs, vs control medium (FIG. 2)
Description: (§1) HAEC and HMVEC (Clonetics) were cultured and subcultured according to manufacturer in growth medium (Clonetics): basal medium containing hEGF, hydrocortisone, VEGF, HFGF-B (with heparin), long R3-IGF-1, ascorbic acid, gentamicin/amphotericin and 5% FBS. These cells were allowed to reach >90% confluency before being subjected to experimental treatments. G-HSA was from US Biologicals. TNFα was from R&D Systems.
Cells were treated with control medium or medium containing 100 ng/ml TNFα or 300 μg/ml G-HSA for 24 hrs. All treatments and controls were carried out in serum free media containing 0.2% albumin. Following treatment, media were collected and used for the MCP-1 ELISA.
MCP-1 ELISA was carried out using a DuoSet ELISA Development System for Human MCP-1 as described by the manufacturer (R&D Systems). 2 ug/ml of mouse anti-human MCP-1 was used as the capture antibody and 100 ng/ml biotinylated goat anti-human MCP-1 was used as the detection antibody. The culture media were incubated with capture antibody for 2 h at room temperature in 96-well plates. The wells were washed three times with wash buffer (0.05% Tween-20 in phosphate buffered saline (PBS) pH 7.4) followed by incubation with detection antibody for 2 h at room temperature. Color development was read at 450 nm in a microplate reader.

[2] = tested on: G-HSA induced secretion of IL-6 in endothelial cells; assay: High-throughput screening of compounds that block G-HSA produced induction of IL-6, IL-6 ELISA; conditions: endothelial cells incubated with 300 μg/ml G-HSA; untreated cells 74 pg/ml
Description: (§2) The IL-6 ELISA was carried out using human IL-6 DuoSet ELISA development kit as described by manufacturer (R&D Systems). Mouse anti-human IL-6 was used as the capture antibody (2 μg/ml) and biotinylated goat anti-human IL6 (200 ng/ml) was used as the detection antibody. The culture media were incubated with capture antibody for 2 h at room temperature in 96-well plates. The wells were washed three times with wash buffer (0.05% Tween-20 in phosphate buffered saline (PBS) pH 7.4) followed by incubation with detection antibody for 2 h at room temperature. Following three washes, the wells were incubated with Streptavidin-HRP for 20 min. Color development was read at 450 nm in a microplate reader.
Endothelial cells were incubated in control media or media containing 300 μg/ml G-HSA or media containing 300 μg/ml G-HSA and 10 μM of a test compound. […] Although the results in FIG. 3 are only for seven compounds, the method of the present invention is designed for high-throughput screening such that greater than 250 compounds can be screened in duplicate by one person in less than one week.

[3] = tested on: IL-6 secretion by endothelial cells (HMVEC); assay: AGE-induced inflammatory response determined by IL-6 ELISA; conditions: 100 ng/ml TNFα or 300 μg/ml G-HSA, 24 hrs, vs control medium (FIG. 1)
Description: as §1, with “Human aortic (HAEC)” for “HAEC”, “microvascular (HMVEC) endothelial cells” for “HMVEC”, “cell” for “cells”, “Tumor necrosis factor α (TNFα)” for “TNFα”
HMVEC were treated with control medium or medium containing 100 ng/ml TNFα or 300 μg/ml G-HSA for 24 hrs. All treatments and controls were carried out in serum free media containing 0.2% albumin. Following treatment, cell media were collected and used for an IL-6 ELISA.
as §2, with “Following three washes, the wells were incubated with Streptavidin-HRP for 20 min.” left out

Substance: glycated human serum albumin [G-HSA]
- increase in MCP-1 secretion [1]: 65%
- IL-6 secretion [2]: 150 pg/mL
- increase in IL-6 secretion [3]: 87%
